The record followed here is US20150246141A1, “DIAGNOSTIC AGENTS WITH ENHANCED SENSITIVITY/SPECIFICITY” (BEN-GURION UNIVERSITY OF THE NEGEV RESEARCH AND DEVELOPMENT …, priority 2012, published 2015).

This series has as its system LS-174T human colorectal adenocarcinoma. As to the kind of experiment: Murine orthotopic colorectal tumor model LS-174T, intraluminal instillation, imaging of excised colon and organs. Format: in vivo, female athymic nude mice. The conditions noted are these: 40 μg per mouse (0.2 mg/ml) intraluminally. Here is the method: The murine orthotopic colorectal tumor model LS-174T human colorectal adenocarcinoma cells (3×10^7 cells) were injected (600 μL) into the descending colonic wall of 13 anesthetized, female athymic nude mice, after an over night fast. […] Histopathological examination was performed on paraffin fixed colonic tissue specimens, after an H&E stain and verified that the carcinoma infiltrated within the mucosa, submucosa, and muscular layer
Thirty days after tumor induction, aqueous solution (PBS, 0.2 mg/ml) of 9.2% of P-(AP-IR783) prepared according to Example 1 was instilled into the colon of the anesthetized mice over 20 minutes, after which colons were washed ×3 times with large volumes of PBS. The mice were sacrificed 3 hrs post treatment, their colons exteriorized, separated, cut open, spread on a transparent film with the mucosal aspects upwards, and imaged by the Odyssey® Infrared Imaging System (Li-Cor Biosciences, Lincoln, Nebr., USA.) with excitation wavelength of 780 nm and emission wavelength of 800 nm.

Where [1] appears, read: images at 3 hours following washing.

As for “HPMA copolymer bearing IR783-S-Ph-COOH [P-(AP-IR783)]”, the “accumulation in irrelevant, well perfused tissue such as the heart or in the urine” value is listed as “accumulation was not found”. Besides, under setting [1], the “background staining in unaffected tissues and samples (e.g. heart, small bowel, urine)” value is on record as “very little background staining”; the “staining in excised tumor colon tissue, stomach, liver, lungs and feces” value was “intense staining”.
